# Literature values as cited in publication PMC12107553 (ACS chemical neuroscience, 2024).
# Target: HIV reverse transcriptase (RT) (Human immunodeficiency virus type 1 group M subtype B, UniProt P03366)
# Conditions: read-out: HIV RT IC50; cited from earlier work
smiles,measurement,value
Cc1cc(C#N)cc(C)c1Oc1nc(Nc2ccc(C#N)cc2)nc(N)c1Br [Etravirine],IC50,573 nM
